Source: ChEMBL document CHEMBL5537189 (J Med Chem, 2024)
Active and inactive are the calls of the source. The rule behind the calls is not given here.

The chains behind the UniProt entries cited, without tags or fusion partners. Where a name states a change or a piece, a line headed by the entry shows the natural chain unless it says otherwise.
UniProt P10276, whole entry: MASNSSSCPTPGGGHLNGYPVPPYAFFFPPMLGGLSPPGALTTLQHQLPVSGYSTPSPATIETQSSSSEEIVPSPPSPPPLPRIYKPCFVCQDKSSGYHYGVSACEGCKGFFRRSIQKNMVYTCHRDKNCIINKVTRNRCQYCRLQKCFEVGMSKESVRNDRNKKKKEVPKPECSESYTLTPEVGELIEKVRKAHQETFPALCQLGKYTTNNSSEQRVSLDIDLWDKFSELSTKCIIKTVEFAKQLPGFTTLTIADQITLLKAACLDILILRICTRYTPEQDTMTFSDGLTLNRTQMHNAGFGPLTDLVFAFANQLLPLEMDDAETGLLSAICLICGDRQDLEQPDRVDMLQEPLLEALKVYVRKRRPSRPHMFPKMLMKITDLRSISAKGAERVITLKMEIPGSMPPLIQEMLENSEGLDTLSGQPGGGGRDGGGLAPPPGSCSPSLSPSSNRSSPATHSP
UniProt P10826, whole entry: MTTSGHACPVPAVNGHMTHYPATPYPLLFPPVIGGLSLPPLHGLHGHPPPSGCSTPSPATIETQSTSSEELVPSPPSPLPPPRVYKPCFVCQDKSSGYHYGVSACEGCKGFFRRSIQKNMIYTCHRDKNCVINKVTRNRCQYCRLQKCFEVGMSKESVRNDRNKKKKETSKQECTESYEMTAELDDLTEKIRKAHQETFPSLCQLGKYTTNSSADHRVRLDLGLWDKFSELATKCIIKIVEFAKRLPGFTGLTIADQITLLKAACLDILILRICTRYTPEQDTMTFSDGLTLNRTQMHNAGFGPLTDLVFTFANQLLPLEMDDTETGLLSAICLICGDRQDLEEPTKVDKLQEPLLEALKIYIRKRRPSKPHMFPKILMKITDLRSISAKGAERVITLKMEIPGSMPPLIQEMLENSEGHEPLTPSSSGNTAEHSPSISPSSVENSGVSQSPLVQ
UniProt P13631, whole entry: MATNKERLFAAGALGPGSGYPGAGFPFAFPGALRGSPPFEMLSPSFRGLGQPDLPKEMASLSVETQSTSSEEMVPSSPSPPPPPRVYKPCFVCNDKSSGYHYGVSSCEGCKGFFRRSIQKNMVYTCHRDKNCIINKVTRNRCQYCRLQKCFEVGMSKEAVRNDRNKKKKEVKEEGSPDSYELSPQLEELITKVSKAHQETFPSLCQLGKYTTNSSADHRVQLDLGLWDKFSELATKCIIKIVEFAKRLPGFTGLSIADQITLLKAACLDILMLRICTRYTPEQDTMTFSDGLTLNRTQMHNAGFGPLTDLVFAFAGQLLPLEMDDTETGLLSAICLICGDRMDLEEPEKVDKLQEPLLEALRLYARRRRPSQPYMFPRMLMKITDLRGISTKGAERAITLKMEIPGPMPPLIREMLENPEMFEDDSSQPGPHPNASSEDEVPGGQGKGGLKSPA
UniProt P37231: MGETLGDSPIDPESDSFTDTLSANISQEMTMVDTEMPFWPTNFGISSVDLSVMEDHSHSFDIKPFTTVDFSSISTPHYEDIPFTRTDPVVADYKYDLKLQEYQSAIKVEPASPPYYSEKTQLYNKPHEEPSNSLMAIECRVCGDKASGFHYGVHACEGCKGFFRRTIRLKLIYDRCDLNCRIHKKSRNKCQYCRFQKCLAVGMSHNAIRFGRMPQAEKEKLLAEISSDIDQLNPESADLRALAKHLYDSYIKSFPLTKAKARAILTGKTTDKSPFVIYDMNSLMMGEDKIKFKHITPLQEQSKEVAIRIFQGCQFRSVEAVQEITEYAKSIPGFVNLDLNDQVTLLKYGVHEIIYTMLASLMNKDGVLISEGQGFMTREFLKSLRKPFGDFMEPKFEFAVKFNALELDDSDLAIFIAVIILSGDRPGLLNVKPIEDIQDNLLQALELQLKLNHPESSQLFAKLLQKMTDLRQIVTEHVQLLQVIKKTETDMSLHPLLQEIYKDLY
UniProt P55055, whole entry: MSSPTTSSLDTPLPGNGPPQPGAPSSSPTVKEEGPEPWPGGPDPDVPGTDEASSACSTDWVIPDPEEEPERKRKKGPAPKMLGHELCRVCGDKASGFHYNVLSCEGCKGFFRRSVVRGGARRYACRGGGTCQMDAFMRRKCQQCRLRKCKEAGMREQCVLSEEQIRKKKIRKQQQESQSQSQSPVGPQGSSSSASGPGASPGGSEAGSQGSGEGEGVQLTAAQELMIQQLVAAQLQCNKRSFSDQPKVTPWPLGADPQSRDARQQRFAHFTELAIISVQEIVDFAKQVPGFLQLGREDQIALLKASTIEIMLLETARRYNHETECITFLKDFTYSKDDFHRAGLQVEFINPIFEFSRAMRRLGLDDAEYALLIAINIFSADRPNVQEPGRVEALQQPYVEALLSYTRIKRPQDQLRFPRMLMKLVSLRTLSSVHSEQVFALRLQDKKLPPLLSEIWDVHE
UniProt Q13133, whole entry: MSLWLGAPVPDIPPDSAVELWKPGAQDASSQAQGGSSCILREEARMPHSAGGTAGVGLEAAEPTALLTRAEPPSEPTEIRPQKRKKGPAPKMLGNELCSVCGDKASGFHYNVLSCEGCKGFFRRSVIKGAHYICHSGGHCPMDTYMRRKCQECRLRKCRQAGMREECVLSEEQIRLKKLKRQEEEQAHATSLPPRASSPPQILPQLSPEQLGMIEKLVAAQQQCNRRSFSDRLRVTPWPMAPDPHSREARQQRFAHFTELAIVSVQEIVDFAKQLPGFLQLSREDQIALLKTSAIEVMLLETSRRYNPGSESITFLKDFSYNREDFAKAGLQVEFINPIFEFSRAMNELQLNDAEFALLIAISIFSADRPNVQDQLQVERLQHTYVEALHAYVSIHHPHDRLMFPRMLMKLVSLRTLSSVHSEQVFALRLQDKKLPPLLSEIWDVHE

Experiments:
[1] = system: COS-7; assay: Cytotoxicity against African green monkey COS7 cells at upto 100 uM by CCK-8 method; assay type: toxicity, cell-based; settings: chlorocebus aethiops, cos-7, 100 µM
[2] = target: T1, Thyroid hormone receptor alpha (Homo sapiens) (UniProt P10827); assay: Partial agonist activity NR1A1 (unknown origin) assessed as mean relative activation at 1 uM relative to reference agonist
T1 sequence (whole entry): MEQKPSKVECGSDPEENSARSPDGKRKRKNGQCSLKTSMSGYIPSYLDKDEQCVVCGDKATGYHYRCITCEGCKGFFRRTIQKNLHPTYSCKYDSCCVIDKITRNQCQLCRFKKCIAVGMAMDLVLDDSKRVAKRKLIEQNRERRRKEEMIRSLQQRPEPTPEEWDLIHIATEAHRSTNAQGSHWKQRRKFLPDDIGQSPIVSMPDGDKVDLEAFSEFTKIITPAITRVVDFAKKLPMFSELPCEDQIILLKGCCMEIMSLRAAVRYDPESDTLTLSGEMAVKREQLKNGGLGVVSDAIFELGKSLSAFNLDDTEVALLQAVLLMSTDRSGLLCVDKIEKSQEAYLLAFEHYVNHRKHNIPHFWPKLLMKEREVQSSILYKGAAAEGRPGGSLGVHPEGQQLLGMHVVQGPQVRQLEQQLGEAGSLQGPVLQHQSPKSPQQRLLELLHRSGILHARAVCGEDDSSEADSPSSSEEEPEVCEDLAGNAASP

[3] = target: T2, Thyroid hormone receptor beta (Homo sapiens) (UniProt P10828); assay: Partial agonist activity NR1A2 (unknown origin) assessed as mean relative activation at 1 uM relative to reference agonist
T2 sequence (whole entry): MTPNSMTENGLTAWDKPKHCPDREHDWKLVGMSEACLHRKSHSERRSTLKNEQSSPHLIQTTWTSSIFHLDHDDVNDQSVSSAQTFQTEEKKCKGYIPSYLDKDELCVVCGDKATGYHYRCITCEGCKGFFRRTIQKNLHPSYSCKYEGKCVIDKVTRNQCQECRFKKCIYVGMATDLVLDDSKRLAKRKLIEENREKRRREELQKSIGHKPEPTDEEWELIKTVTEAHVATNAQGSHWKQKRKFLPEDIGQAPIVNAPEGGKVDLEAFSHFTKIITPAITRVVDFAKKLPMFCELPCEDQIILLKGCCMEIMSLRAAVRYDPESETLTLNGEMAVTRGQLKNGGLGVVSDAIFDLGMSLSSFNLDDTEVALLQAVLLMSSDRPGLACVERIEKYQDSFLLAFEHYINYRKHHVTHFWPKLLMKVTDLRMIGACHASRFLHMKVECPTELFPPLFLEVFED

[4] = target: Retinoic acid receptor alpha (Homo sapiens) (UniProt P10276); assay: Partial agonist activity NR1B1 (unknown origin) assessed as mean relative activation at 1 uM relative to reference agonist
[5] = target: Retinoic acid receptor beta (Homo sapiens) (UniProt P10826); assay: Partial agonist activity NR1B2 (unknown origin) assessed as mean relative activation at 1 uM relative to reference agonist
[6] = target: Retinoic acid receptor gamma (Homo sapiens) (UniProt P13631); assay: Partial agonist activity NR1B3 (unknown origin) assessed as mean relative activation at 1 uM relative to reference agonist
[7] = target: T3, Nuclear receptor subfamily 2 group C member 1 (Homo sapiens) (UniProt P13056); assay: Partial agonist activity NR1C1 (unknown origin) assessed as mean relative activation at 1 uM relative to reference agonist
T3 sequence (whole entry): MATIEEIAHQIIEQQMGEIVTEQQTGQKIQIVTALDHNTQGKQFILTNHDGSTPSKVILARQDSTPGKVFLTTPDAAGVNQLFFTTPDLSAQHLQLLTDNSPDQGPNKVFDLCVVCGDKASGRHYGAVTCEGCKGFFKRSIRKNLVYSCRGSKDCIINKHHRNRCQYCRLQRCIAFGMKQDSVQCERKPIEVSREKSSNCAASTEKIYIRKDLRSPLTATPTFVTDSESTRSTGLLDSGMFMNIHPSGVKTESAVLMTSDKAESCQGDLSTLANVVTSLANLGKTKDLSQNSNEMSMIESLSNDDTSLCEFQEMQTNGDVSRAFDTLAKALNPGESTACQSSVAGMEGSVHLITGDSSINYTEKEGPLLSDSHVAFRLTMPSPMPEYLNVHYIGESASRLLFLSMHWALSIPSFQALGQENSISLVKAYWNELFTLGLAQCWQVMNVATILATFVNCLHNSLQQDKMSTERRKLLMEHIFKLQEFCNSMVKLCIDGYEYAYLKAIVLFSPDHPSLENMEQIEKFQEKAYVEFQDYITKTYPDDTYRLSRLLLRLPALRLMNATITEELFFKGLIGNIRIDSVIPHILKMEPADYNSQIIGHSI

[8] = target: T4, Peroxisome proliferator-activated receptor delta (Homo sapiens) (UniProt Q03181); assay: Partial agonist activity NR1C2 (unknown origin) assessed as mean relative activation at 1 uM relative to reference agonist
T4 sequence (whole entry): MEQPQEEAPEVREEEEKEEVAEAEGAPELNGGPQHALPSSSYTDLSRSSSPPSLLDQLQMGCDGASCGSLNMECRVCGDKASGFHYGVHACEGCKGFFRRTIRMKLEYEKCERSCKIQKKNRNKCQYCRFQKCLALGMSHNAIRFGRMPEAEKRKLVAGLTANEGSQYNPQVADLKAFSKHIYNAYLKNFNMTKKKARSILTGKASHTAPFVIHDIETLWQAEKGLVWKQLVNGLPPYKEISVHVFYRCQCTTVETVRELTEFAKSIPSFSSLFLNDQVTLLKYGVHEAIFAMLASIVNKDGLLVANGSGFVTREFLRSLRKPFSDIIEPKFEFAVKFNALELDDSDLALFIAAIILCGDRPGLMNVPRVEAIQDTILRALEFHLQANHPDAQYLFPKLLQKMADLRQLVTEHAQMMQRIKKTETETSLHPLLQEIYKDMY

[9] = target: Peroxisome proliferator-activated receptor gamma (Homo sapiens) (UniProt P37231); assay: Partial agonist activity NR1C3 (unknown origin) assessed as mean relative activation at 1 uM relative to reference agonist
[10] = target: Oxysterols receptor LXR-beta (Homo sapiens) (UniProt P55055); assay: Partial agonist activity NR1H2 (unknown origin) assessed as mean relative activation at 1 uM relative to reference agonist
[11] = target: Oxysterols receptor LXR-alpha (Homo sapiens) (UniProt Q13133); assay: Partial agonist activity NR1H3 (unknown origin) assessed as mean relative activation at 1 uM relative to reference agonist
[12] = target: T5, Bile acid receptor (Homo sapiens) (UniProt Q96RI1); assay: Partial agonist activity NR1H4 (unknown origin) assessed as mean relative activation at 1 uM relative to reference agonist
T5 sequence (whole entry): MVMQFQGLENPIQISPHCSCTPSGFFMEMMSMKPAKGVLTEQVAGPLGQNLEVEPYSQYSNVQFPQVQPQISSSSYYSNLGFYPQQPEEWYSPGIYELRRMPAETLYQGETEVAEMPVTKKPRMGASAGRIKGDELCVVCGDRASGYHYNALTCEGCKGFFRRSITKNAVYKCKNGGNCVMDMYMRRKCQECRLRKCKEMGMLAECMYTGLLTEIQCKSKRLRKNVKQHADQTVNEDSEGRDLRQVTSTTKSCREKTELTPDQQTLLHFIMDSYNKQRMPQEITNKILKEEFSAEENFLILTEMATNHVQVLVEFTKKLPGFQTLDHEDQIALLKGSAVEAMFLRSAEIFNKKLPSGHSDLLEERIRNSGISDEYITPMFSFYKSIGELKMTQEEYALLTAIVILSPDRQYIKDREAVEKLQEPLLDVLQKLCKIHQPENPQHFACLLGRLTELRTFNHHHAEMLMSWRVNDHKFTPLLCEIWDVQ

[13] = target: T6, Retinoic acid receptor RXR-alpha (Homo sapiens) (UniProt P19793); assay: Partial agonist activity NR2B1 (unknown origin) assessed as mean relative activation at 1 uM relative to reference agonist
T6 sequence (whole entry): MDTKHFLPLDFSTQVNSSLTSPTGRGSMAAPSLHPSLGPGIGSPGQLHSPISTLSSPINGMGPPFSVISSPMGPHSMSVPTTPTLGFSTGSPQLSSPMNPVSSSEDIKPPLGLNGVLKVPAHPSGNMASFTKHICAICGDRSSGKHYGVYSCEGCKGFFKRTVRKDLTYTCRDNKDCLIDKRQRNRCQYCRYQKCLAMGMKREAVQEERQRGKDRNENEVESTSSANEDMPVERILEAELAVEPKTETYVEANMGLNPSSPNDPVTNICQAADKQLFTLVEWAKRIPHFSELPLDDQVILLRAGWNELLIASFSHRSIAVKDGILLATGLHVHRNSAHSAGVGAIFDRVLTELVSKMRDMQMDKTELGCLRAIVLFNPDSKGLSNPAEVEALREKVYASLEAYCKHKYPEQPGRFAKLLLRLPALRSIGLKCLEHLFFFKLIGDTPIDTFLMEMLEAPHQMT

[14] = target: T7, Retinoic acid receptor RXR-gamma (Homo sapiens) (UniProt P48443); assay: Partial agonist activity NR2B3 (unknown origin) assessed as mean relative activation at 1 uM relative to reference agonist
T7 sequence (whole entry): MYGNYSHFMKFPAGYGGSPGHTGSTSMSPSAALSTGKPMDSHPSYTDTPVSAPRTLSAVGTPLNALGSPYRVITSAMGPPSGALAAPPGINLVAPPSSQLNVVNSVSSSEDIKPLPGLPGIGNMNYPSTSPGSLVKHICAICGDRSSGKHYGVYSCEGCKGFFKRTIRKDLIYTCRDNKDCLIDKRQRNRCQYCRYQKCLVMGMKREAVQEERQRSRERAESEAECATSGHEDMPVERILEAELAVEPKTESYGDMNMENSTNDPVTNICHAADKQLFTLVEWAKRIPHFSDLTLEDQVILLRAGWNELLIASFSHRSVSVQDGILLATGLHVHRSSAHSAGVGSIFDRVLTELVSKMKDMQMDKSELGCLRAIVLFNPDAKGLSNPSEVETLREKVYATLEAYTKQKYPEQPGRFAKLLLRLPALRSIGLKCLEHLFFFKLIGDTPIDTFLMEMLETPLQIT

## CC1(C)CCN(c2cc(Cl)nc(OCCC(=O)O)n2)c2ccccc21
[1]
  Activity: Non-Toxic
[2]
  Activity: inactive
[3]
  Activity: inactive
[4]
  Activity: inactive
[5]
  Activity: inactive
[6]
  Activity: inactive
[7]
  Activity: inactive
[8]
  Activity: inactive
[9]
  Activity: inactive
[10]
  Activity: inactive
[11]
  Activity: inactive
[12]
  Activity: inactive
[13]
  Activity: inactive
[14]
  Activity: inactive
